Assays:
ERK = ERK activation in adherent neutrophils; format: cell-based, human; conditions: neutrophils pre-adhered to plasma-coated dishes; 15 min; TNF 1000 U/ml, TNF70-80 10 μM
Description: ERK activation was determined by assessing the level of ERK1/ERK2 dual phosphorylation (a) or by kinase activity assay (b) after immunoprecipitation. JNK activity was assayed as described under Experimental using GST-jun (1-79) as the substrate (c). (a) Immunoblot probed with anti-ACTIVE ERK antibody (top panel), stripped, and re-probed with anti-ERK2 antibody (bottom panel). (b) The data is presented as the means+−sem of 3 experiments. […] Significance of difference between control and stimulated cells: *p<0.05.
Neutrophils were prepared from peripheral blood of healthy donors by a rapid single-step technique (Kumaratilake, L. M., Rathjen, D. A., Mack, P., Widmer, F., Prasertsiriroj, V., and Ferrante, A. (1995) J. Clin. Invest. 95: 2315-2323) using Hypaque-Ficoll and according to the institution's guidelines on human ethics. The preparations of neutrophils were routinely of >99% viability and >98% purity. […]
Western blot analysis was conducted as described previously (Hii, C. S., Huang, Z. H., Bilney, A., Costabile, M., Murray, A. W., Rathjen, D. A., Der, C. J., and Ferrante, A. (1998) J. Biol. Chem. 273: 19277-19282). […] The amounts of dually phosphorylated ERK1 and ERK2, phospho-JNK and NFκB p65 subunit were detected using rabbit anti-active ERK, mouse anti-phospho JNK and rabbit anti-NFκB antibody, respectively. […]

p38 = p38 kinase activity in WEHI-164 cells; format: cell-based; conditions: 15 mins; TNF 1000 U/ml, TNF132-150 100 μg/ml
Description: The level of myelin basic protein phosphorylation was quantitated by an Instant Imager. A representative radiogram from the Instant Imager and pooled data (means±SEM of 3 experiments) are shown.
WEHI-164 cells were cultured in 28 cm^2 dishes to approx 80% confluence before the desired treatment. […] After washing twice with cold HBSS, cells were harvested by scraping and lysed in 400 μl of buffer A (20 mM HEPES, pH 7.4, 0.5% (v/v) Nonidet P-40, 100 mM NaCl, 1 mM EDTA, 2 mM Na3VO4, 2 mM dithiothreitol, 1 mM phenylmethylsulfonyl fluoride, and 10 μg/ml Sigma 104, leupeptin, aprotonin, pepstatin A, and benzamidine) for 2 h at 4° C. with constant mixing (Hii et al. (1998) J Biol Chem. 273(30):19277-82). After centrifugation (12,000 g×5 min), the supernatants were collected and the protein content of the lysates was determined by Lowry's method of protein determination. A solid phase assay using glutathione-S-transferase (GST)-conjugated-jun (1-79) was employed to assay JNK activity (Hii et al. (1998) J Biol Chem. 273(30):19277-82) GST-jun (1-79) was fractionated on 12% SDS polyacrylamide gels and the bands were detected and radioactivity determined using an Instant Imager (Packard Instruments, Canberra, Australia). […]

NFκB = NFκB pathway activation in human neutrophils (nuclear translocation of NFκB); format: cell-based; conditions: data not shown
Description: After cell lysis, nuclear fractions were prepared, nuclear proteins separated by SDS page (12% gel), transferred to nitrocellulose and probed with an anti NFκB p65 antibody (Santa Cruz). Results represent one experimental run representative of results obtained in two other experiments.
Western blot analysis was conducted as described previously (Hii, C. S., Huang, Z. H., Bilney, A., Costabile, M., Murray, A. W., Rathjen, D. A., Der, C. J., and Ferrante, A. (1998) J. Biol. Chem. 273: 19277-19282). Briefly, equal amounts of denatured protein from each lysate were separated by 12% SDS polyacrylamide gel electrophoresis (PAGE). The proteins were electrophoretically transferred to nitrocellulose membranes (Schleicher and Schuell, Keene, N. H., USA)(3 h at 40V). The amounts of dually phosphorylated ERK1 and ERK2, phospho-JNK and NFκB p65 subunit were detected using rabbit anti-active ERK, mouse anti-phospho JNK and rabbit anti-NFκB antibody, respectively. […]
This pathway, akin to the p38 pathway, is dependent on TRAF-2 and RIP (Kyriakis, J. M., and Auruch, J. (2001) Physiol Rev. 81: 807-869). We measured the nuclear translocation of NFκB as an indicator of the activation of this pathway.

TNF: Human recombinant TNF produced by Genentech, Inc.
ERK activation in adherent neutrophils (ERK): stimulated | activity of p38 in WEHI-164 cells (p38): increased | degradation of IκB (NFκB): caused the degradation of IκB
